The numbers were not newly measured in paper PMC7541340, which cites them from elsewhere.

pKd: −log10 of the molar value.

Broadly, the pKd is the negative decadic logarithm of the Kd, by convention in mol/L.

The target of the data set is C5AR1 N-terminus (Homo sapiens) (UniProt P21730).

As to CHIPS (from UniProt Q2FFF7), the pKd is 8.96.
